Experimental findings from patent US11419870B2, “Intermittent dosing of MDM2 inhibitor” (Novartis AG, priority 2014, dated 2022) are described below.

The nature of the series: Tolerability in SJSA-1 tumor-bearing nude rat (body weight, survival). It is filed as in vivo. To be noted: for change in BW: 3 days post treatment. How it is done: Subcutaneous tumors were induced by concentrating 1.0×10^7 SJSA-1 cells in 50% Matrigel® and injecting in the right flank of Harlan nude rats. Efficacy experiment could start 14 days post cell injection. Compound A was made-up fresh for each administration. For i.v. injection (4 ml/kg), Compound A was dissolved in 30% PEG300, 10% Solutol HS 15, 6% Pluronic F68 and 54% water. For per os (p.o.) injection (5 ml/kg), Compound A was dissolved in methylcellulose 0.5% w/V in phosphate buffer pH 6.8 50 mM. The animals were treated either at a high dose (20 mg/kg i.v. or 27 mg/kg p.o.) once every 3 weeks (q3w) or at a high dose (15 mg/kg p.o.) followed 24 h later by a daily low dose treatment (3 mg/kg p.o., 2 weeks on/2 weeks off).
[formula] Similarly, the body-weight (BW) of the animal was measured three times per week allowing calculation at any particular time-point relative to the day of initiation of treatment (day 0) of the percentage change in BW (Δ % BW).

In the case of `COc1ncc(-c2nc3c(n2C(C)C)[C@H](c2ccc(Cl)cc2)N(c2cc(Cl)cn(C)c2=O)C3=O)c(OC)n1` [Compound A, (S)-5-(5-Chloro-1-methyl-2-oxo-1,2-dihydro-pyridin-3-yl)-6-(4-chloro-phenyl)-2-(2,4-dimethoxy-pyrimidin-5-yl)-1-isopropyl-5,6-dihydro-1H-pyrrolo[3,4-d]imidazol-4-one], the Survival (i.v. q3w 13.7 mg/kg, week 1 post treatment) is 6/6; the Survival (i.v. q3w 13.7 mg/kg, week 2 post treatment) is recorded as 6/6; the Survival (i.v. q3w 18.2 mg/kg, week 1 post treatment) is given as 5/5; the Survival (i.v. q3w 18.2 mg/kg, week 2 post treatment) is 5/5; the Survival (i.v. q3w 18.2 mg/kg, week 3 post treatment) is 5/5; the Survival (i.v. q3w 18.2 mg/kg, week 5 post treatment) is listed as 5/5. Also, for the setting “i.v. q3w 18.2 mg/kg, week 6 post treatment”, the Survival is recorded as 5/5. Besides, under “i.v. q3w 20 mg/kg”, the “animals that survived the 2 full cycles” value is recorded as 2/7. In addition, the “change in BW” value runs as follows: (i.v. q3w 13.7 and 18.2 mg/kg) “slight loss in BW”; (single i.v. 20 mg/kg, all others rats) “slight decrease in BW”. The “change in bodyweight (BW)” value (p.o. q3w 20 and 27 mg/kg, 3 days post each treatment) is “slight decrease in bodyweight”.
